Bounds are passed on as bounds.

This test deals with human ORL-1 receptor (Homo sapiens, UniProt P41146). Briefly: ORL-1 receptor-binding test ([3H]-nociceptin). The following applies: read-out: Affinity Ki (nM) ORL-1, membrane of HEK293 cell expressing human ORL-1 receptor.
For `CNC(=O)Cn1c(=O)n(C2CCN(C3CCCc4ccccc43)CC2)c2ccccc21` (stereo not drawn), the inhibition constant (Ki) is less than 10 nM.
In the case of `CNC(=O)Cn1c(=O)n(C2CCN(C3Cc4ccc(Cl)c5cccc3c45)CC2)c2ccccc21` (stereo not drawn), the Ki was less than 10 nM.
As to `CNC(=O)Cn1c(=O)n(C2CCN([C@@H]3CCCc4ccccc43)CC2)c2ccccc21`, the Ki was less than 10 nM.
As to `CNC(=O)Cn1c(=O)n(C2CCN(C3CCc4ccccc43)CC2)c2ccccc21` (stereo not drawn), the Ki was less than 10 nM.
Consider `CNC(=O)Cn1c(=O)n(C2CCN([C@@H]3Cc4ccc(F)c5cccc3c45)CC2)c2ccccc21`, for which the inhibitory constant (Ki) is less than 10 nM.
With `CNC(=O)Cn1c(=O)n(C2CCN(C3Cc4c(Cl)ccc5cccc3c45)CC2)c2ccccc21` (stereo not drawn), the inhibition constant Ki was less than 10 nM.

For the origin of these results see patent US8877779B2 (priority 2007, dated 2014).
